System: EGFR mutant NSCLC cell lines
Assay: AlamarBlue cell viability assay, EGFR mutant NSCLC cell lines
Format: cell-based
Settings: 0.1 µM erlotinib, IFNα1 or IFNβ1 50 ng/mL, 72 h
Method: Cell viability assays were conducted with AlamarBlue Cell Viability Reagent from ThermoFisher (Waltham, MA), following the manufacturer’s protocol. Cells were cultured in Coming (Corning, NY) 96-well black plates with clear bottom and detected by the POLARstar Omega Microplate Reader (BMG LABTECH) (excitation at 544 nm and emission at 590 nm). At least 3 independent experiments were done.

B1: IFNβ: recombinant IFNβ1, exogenous Type I interferon (protein, UniProt P01574 22-187, looked up)
Interferon beta: MSYNLLGFLQRSSNFQCQKLLWQLNGRLEYCLKDRMNFDIPEEIKQLQQFQKEDAALTIYEMLQNIFAIFRQDSSSTGWNETIVENLLANVYHQINHLKTVLEEKLEKEDFTRGKLMSSLHLKRYYGRILHYLKAKEYSHCAWTIVRVEILRNFYFINRLTGYLRN
  protection from erlotinib-induced cell death: protects NSCLC cells with mutant EGFR activating from cell death
